The values that follow come from PubChem BioAssay AID463212 (Sanford-Burnham Center for Chemical Genomics, 2010).

The entries are a selection whose mix differs from that of the whole data set. Active and inactive are the calls of the source.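 The calls were made as follows: active = growth inhibition of the mutant yeast at or above 50%; inactive = the rest.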

The experiment is described as follows: growth inhibition of tim23-1 ts yeast – luminescence, uHTS, primary screen (AID 463212).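 Also: temperature-sensitive mutant grown at 25 °C; plate controls were DMSO-treated mutant yeast for no effect and medium wells lacking yeast for full effect.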 The settings on record: S. cerevisiae tim23-1 growth, BacTiter-Glo luminescence, 24 h; at 20 µM; stronger effect = higher value.
For the compound `Cc1cccc(OCC(=O)OC2CN3CCC2CC3)c1` (stereo unspecified), the inhibition was inactive: -6.71%. For the compound `O=[As](O)(c1cccc(O)c1)c1cccc(O)c1`, the inhibition was inactive: -5.45%. On to `O=[As](O)(O)c1cccnc1`, for which the inhibition was inactive: 20.1%. Then `COc1cc(C(=O)NCC2(N3CCOCC3)CCCCC2)cc(Cl)c1OC(C)C`, with inactive: 21.4%; and `CS(=O)(=O)c1ccc(Cl)c(NC(=O)COC(=O)C(O)(c2ccccc2)c2ccccc2)c1`, with inactive: 18.1%. Consider `O=C(OC1CN2CCC1CC2)c1ccc(Cl)cc1` (stereo unspecified), for which the inhibition is inactive: -25.9%.

As for `COc1cc(C2NCCC3(OCCO3)C2(C)C)cc(OC)c1OC` (stereo unspecified), the inhibition is inactive: 4.37%. Regarding `CCOP(=O)(Nc1cccc2ccccc12)OCC`, the inhibition is inactive: -7.03%.

With `CCCOP(=S)(Nc1nc(N)cc(=O)[nH]1)OCCC`, the inhibition was inactive: 5.52%. As for `Cc1ccc(NCCc2c([N+](=O)[O-])cc([N+](=O)[O-])cc2[N+](=O)[O-])cc1`, the inhibition was active: 79.9%. Consider `CC(C)(C)C(=O)NC(Sc1ccccc1)C(Cl)(Cl)Cl` (stereo unspecified), for which the inhibition is inactive: 25%. Then `O=P1(Nc2nc3ccc(Cl)cc3s2)COc2ccccc2O1` (stereo unspecified), with inactive: 16.7%; and `CCOc1ccc(C2=NCC(CBr)S2)cc1` (stereo unspecified), with inactive: 20.4%. In the case of `CC(=O)Nc1ccc([As](=O)(O)O)c(O)c1`, the inhibition is inactive: -1.89%. Consider `CC(=O)Nc1ccc(Oc2c([N+](=O)[O-])cc([N+](=O)[O-])cc2[N+](=O)[O-])cc1`, for which the inhibition is inactive: 10.2%. For the compound `CC(=O)c1ccc(N2CC2c2ccncc2)cc1` (stereo unspecified), the inhibition was inactive: -3.18%. For `Cc1ccccc1CN(C)C(=O)COC(=O)C(O)(c1ccccc1)c1ccccc1`, the inhibition was inactive: 32.9%. For the compound `C[C@H]1OP(=O)(Oc2ccccc2)C[C@@H]2O[C@@H]21` (stereo partly specified), the inhibition is inactive: 15.2%. For the compound `C[C@@H]1C=CCP(=O)(Oc2ccccc2)O1` (stereo partly specified), the inhibition was inactive: -8.96%. As to `O=C(NC1CCS(=O)(=O)C1)NP(=S)(Oc1ccccc1)Oc1ccccc1` (stereo unspecified), the inhibition was inactive: -1.27%. For `CCNC(=S)/N=C(\N)N[N+](=O)[O-]`, the inhibition is inactive: -9.52%. In the case of `c1ccc(-c2nn[nH]n2)c(-c2nn[nH]n2)c1` it was inactive: 2.03%. Regarding `CCOC(=O)NC(Sc1ccccc1)C(Cl)(Cl)Cl` (stereo unspecified), the inhibition is inactive: 6.41%. In the case of `Cc1ccc(NP(=O)(Oc2cccc(C)c2)Oc2cccc(C)c2)nc1`, the inhibition was inactive: -13.4%. `CC(NC(=O)COC(=O)C(O)(c1ccccc1)c1ccccc1)c1ccccc1` (stereo unspecified): the inhibition was inactive: 25.4%. Then `Cc1ccccc1OP(=O)(Nc1ccccn1)Oc1ccccc1C`, with inactive: 39.8%; and `CN(C)C(=O)Oc1noc2ccccc12`, with inactive: 3.04%.

Take `COC(=O)c1cc2c(s1)N=C(c1ccccc1)N(C)P2(=O)N1CCOCC1` (stereo unspecified): the inhibition is inactive: 9.73%.

With `Cc1ccc(OP(=O)(Nc2ccccn2)Oc2ccc(C)cc2)cc1`, the inhibition is inactive: -208%. Then `CC(=O)NC(SC(=S)N(CC(C)C)CC(C)C)C(Cl)(Cl)Cl` (stereo unspecified), with inactive: 46.8%; and `O=C(OC1CN2CCC1CC2)c1ccccc1` (stereo unspecified), with inactive: 3.05%. On to `CCC(=O)N1C2C3N(C(=O)CC)C1C1N(C(=O)CC)C(C(N1C(=O)CC)N3C(=O)CC)N2C(=O)CC`, for which the inhibition is inactive: 16%. On to `O=P(Nc1nc2ccccc2s1)(c1ccccc1)c1ccccc1`, for which the inhibition is inactive: 10.4%. In the case of `C[C@H]1OP(=O)(Oc2ccccc2)[C@H](O)[C@H](O)[C@H]1N=[N+]=[N-]` (stereo partly specified) it was inactive: 7.76%; in that of `CN(C)C1(CNC(=O)c2ccc(Cl)c(S(N)(=O)=O)c2)CCCCC1`, inactive: -10.8%. With `O=P(Nc1ccccn1)(c1ccc(Br)cc1)c1ccc(Br)cc1`, the inhibition is inactive: 22%. In the case of `C(Cc1nn[nH]n1)Cc1nn[nH]n1`, the inhibition is inactive: 14.5%. Turning to `Nc1ccc([As](=O)(O)c2ccc([N+](=O)[O-])cc2)cc1`, the inhibition is inactive: -1.01%.

In the case of `O=C(OC1CN2CCC1CC2)c1cccc(Cl)c1` (stereo unspecified), the inhibition is inactive: -7.57%.

`O=[N+]([O-])c1ncn(CCn2cnc([N+](=O)[O-])n2)n1`: the inhibition was inactive: 7.87%. For `O=[As](O)(c1ccccc1)c1ccc(O)cc1`, the inhibition was inactive: -4.72%.

Consider `c1nnnn1CCn1cnnn1`, for which the inhibition was inactive: 8.94%. With `O=P(Nc1nccs1)(c1ccccc1)c1ccccc1`, the inhibition was inactive: 1.49%.

As to `CC(C)C(=O)NC(Sc1ccccc1)C(Cl)(Cl)Cl` (stereo unspecified), the inhibition is inactive: 7.25%. Then `CC(=O)N1C2C3N(C(C)=O)C1C1N(C(C)=O)C(C(N1C(C)=O)N3C(C)=O)N2C(C)=O`, with inactive: 5.59%; and `O=[N+]([O-])c1cccc2n[nH]nc12`, with inactive: 17.4%. Then `Cc1ccc(NP(=O)(Oc2ccccc2)Oc2ccccc2)nc1`, with inactive: 21.3%; and `O=[N+]([O-])c1cc([N+](=O)[O-])c(CCNc2ccccc2)c([N+](=O)[O-])c1`, with active: 74.5%. In the case of `CCc1nc2c(n1)c1c(non1O)c1c2no[n+]1[O-]` it was inactive: 1.33%; in that of `COc1ccc(C2=NCC(CBr)S2)cc1` (stereo unspecified), inactive: 22.7%. Regarding `CC(C)=N/N=C(\N)N[N+](=O)[O-]`, the inhibition is inactive: 2.2%. `CN(C)C(=O)OCCc1n(C)cc[n+]1C`: the inhibition was inactive: -4.83%. As to `CC1CCN(C(=O)Oc2c(Cl)cc(Cl)c3cccnc23)CC1`, the inhibition was inactive: 32.6%. On to `Nc1ccc([As](=O)(O)c2ccc(N)cc2)cc1`, for which the inhibition was inactive: 2.09%. On to `C[N+]1=C2C=CC=CC=C2SC12C([N+](=O)[O-])=CC([N+](=O)[O-])=C[C-]2[N+](=O)[O-]` (stereo unspecified), for which the inhibition was active: 88.6%. Then `CCN(/C(=N/P(=O)(N1CCOCC1)N1CCOCC1)N1CCOCC1)c1ccc(OC)cc1`, with inactive: -3.27%. `O=C(Nc1cc([As](=O)(O)O)ccc1O)c1ccccc1`: the inhibition was inactive: 19.9%. In the case of `O=[N+]([O-])c1cccc(NC2=NCC(CBr)S2)c1` (stereo unspecified) it was inactive: 8.8%; in that of `CC(C)(C)C(=O)NC(Sc1ccncn1)C(Cl)(Cl)Cl` (stereo unspecified), inactive: 8.38%; in that of `O=[N+]([O-])c1ncn(CCn2ncnc2[N+](=O)[O-])n1`, inactive: -1.54%. Consider `Cc1cc(SC(NC(=O)c2ccc(F)cc2)C(Cl)(Cl)Cl)ncn1` (stereo unspecified), for which the inhibition is inactive: 13.9%.

In the case of `CCOP(=O)(Nc1ccccc1)OCC`, the inhibition was inactive: 15.1%. Then `CN(C(=O)Cc1ccc(Cl)c(Cl)c1)[C@H]1CCCC[C@@H]1N1CCCC1`, with inactive: 11.3%; and `Cc1ccc(NP(=O)(Oc2ccccc2F)Oc2ccccc2F)nc1`, with inactive: 19.7%; and `CC(=O)Nc1ccc([As](=O)(O)O)cc1`, with inactive: 14.1%. Take `O=C(O)c1ccccc1[As](=O)(O)O`: the inhibition was inactive: -3.33%.

For the compound `O=P(Nc1nc2ccc(Cl)cc2s1)(c1ccccc1)c1ccccc1`, the inhibition is inactive: 25.7%. In the case of `CCN(N=Nc1nonc1N)c1nonc1N`, the inhibition is inactive: 4.13%. Consider `O=[N+]([O-])c1cc([N+](=O)[O-])c(CCN2CCOCC2)c([N+](=O)[O-])c1`, for which the inhibition was inactive: 47.9%.

Take `COc1ccccc1OP(=O)(Nc1ccc(C)cn1)Oc1ccccc1OC`: the inhibition was inactive: 11.8%. On to `Cc1ccc(OP(=O)(Nc2nccs2)Oc2ccc(C)cc2)cc1`, for which the inhibition is inactive: 13.1%.

Consider `CN1CCCC(OC(=O)C(c2ccccc2)c2ccccc2)C1` (stereo unspecified), for which the inhibition was inactive: -21.5%.

Take `Clc1ccc(Cl)c(NC2=NCC(CBr)S2)c1` (stereo unspecified): the inhibition was inactive: 24.7%. In the case of `NC(=O)c1cc([N+](=O)[O-])cc([N+](=O)[O-])c1N`, the inhibition is inactive: -14.4%. In the case of `CN(C(=O)Cc1ccc(Cl)c(Cl)c1)[C@H]1CCCC[C@H]1N1CCCC1` it was inactive: -0.753%. On to `Cc1ccc(N/C(=N/P(=O)(N2CCOCC2)N2CCOCC2)N2CCOCC2)cc1`, for which the inhibition is inactive: -0.592%. Regarding `Nc1cc(N)c2nonc2c1[N+](=O)[O-]`, the inhibition is inactive: -2.48%. With `CC(C)CC(=O)NC(Sc1ccc(Cl)cc1)C(Cl)(Cl)Cl` (stereo unspecified), the inhibition was inactive: 16.9%. Turning to `Oc1ccccc1CNc1ccccn1`, the inhibition is inactive: 15.5%. Turning to `O=C(NC(Sc1ccncn1)C(Cl)(Cl)Cl)c1ccccc1` (stereo unspecified), the inhibition is inactive: 1.61%. In the case of `Cc1c2non([O-])c-2c(C)[n+](=O)[n+]1[O-]` it was inactive: 8.73%.

The inhibition is the change of the read-out against control, counted positive when it falls.
